According to patent US5496810A, “Pyrimidine deoxyribonucleoside potentiation of combination therapy based on 5-fluorouracil and interferon” (Montefiore Medical Center, priority 1994, dated 1996):
Like-named read-outs stand apart in the source and are kept apart here.

Columns and labels:
[1] = background statement; cited from earlier work
[2] = tested on: HT-29 human carcinoma cells; settings: for Cloning Efficiency (% of control): 72 hours
Description: HT-29 human carcinoma cells (ATCC No. HTB-38) were maintained in RPMI 1640 with 10%v/v fetal bovine serum (GIBCO) in a humidified, 5% CO2 atmosphere at 37° C. Cells were plated in 24 well plates (150 cells per well) in RPMI 1640 medium with 10% v/v dialyzed fetal bovine serum. […] The various agents were diluted in phosphate-buffered saline (PBS), and control wells received vehicle alone. After 72 hours, drug containing medium was removed and replaced with RPMI 1640 with 10%v/v fetal bovine serum. Cell colonies were allowed to grow for an additional 7-10 days, at which point they were stained and counted. […] Data are means of at least 3 determinations. The IC50 values for 5-fluorouracil were calculated graphically by determining the concentration of 5-fluorouracil that reduced cloning efficiency by 50% from the cloning efficiency value measured in the absence of 5-fluorouracil.

[3] = tested on: advanced colorectal cancer; settings: treatment of advanced colorectal cancer; background statement; cited from earlier work

Substance: Interferon-α: interferonα (RoferonA, Roche Labs) 500 u/ml
- potentiation of the cytotoxicity of 5-fluorouracil in vitro [1]: potentiates the cytotoxicity of 5-fluorouracil in vitro
- Change (of 5-FU IC50) [2]: 1.8
- Cloning Efficiency (% of control) ([2]; 5-FU 0, IFN 500 u/ml, 5-ETH or 5-PRO 150 μM): 95%
- Cloning Efficiency (% of control) ([2]; 5-FU 0.25 μM, alone (CONT) or with IFN 500 u/ml, 5-ETH or 5-PRO 150 μM): 97%
- Cloning Efficiency (% of control) ([2]; 5-FU 0.50 μM, alone (CONT) or with IFN 500 u/ml, 5-ETH or 5-PRO 150 μM): 83%
- Cloning Efficiency (% of control) ([2]; 5-FU 1.0 μM, alone (CONT) or with IFN 500 u/ml, 5-ETH or 5-PRO 150 μM): 56%
- Cloning Efficiency (% of control) ([2]; 5-FU 1.5 μM, alone (CONT) or with IFN 500 u/ml, 5-ETH or 5-PRO 150 μM): 18%
- Cloning Efficiency (% of control) ([2]; 5-FU 2.0 μM, alone (CONT) or with IFN 500 u/ml, 5-PRO 150 μM): 8%
- in vivo efficacy of the combination with 5-fluorouracil [3]: in vivo efficacy of this combination has been demonstrated
